Measured values from the supplement of paper PMC11403291.

By UniProt entry, the sequences of proteins in these tests, tags left out. Where a name states a change or a piece, a line headed by the entry shows the natural chain unless it says otherwise.
UniProt P49759: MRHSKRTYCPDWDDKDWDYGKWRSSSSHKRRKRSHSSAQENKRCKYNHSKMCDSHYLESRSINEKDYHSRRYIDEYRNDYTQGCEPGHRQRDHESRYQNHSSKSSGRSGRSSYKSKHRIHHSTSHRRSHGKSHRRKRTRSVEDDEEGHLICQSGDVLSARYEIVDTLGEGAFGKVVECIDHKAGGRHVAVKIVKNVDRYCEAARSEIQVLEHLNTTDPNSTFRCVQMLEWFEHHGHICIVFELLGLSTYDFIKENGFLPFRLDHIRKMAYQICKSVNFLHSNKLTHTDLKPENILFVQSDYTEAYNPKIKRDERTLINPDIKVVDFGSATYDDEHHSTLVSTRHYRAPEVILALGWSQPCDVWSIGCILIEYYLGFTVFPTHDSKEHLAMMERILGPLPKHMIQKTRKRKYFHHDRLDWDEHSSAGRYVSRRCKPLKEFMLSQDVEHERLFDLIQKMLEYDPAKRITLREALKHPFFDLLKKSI
UniProt P48730: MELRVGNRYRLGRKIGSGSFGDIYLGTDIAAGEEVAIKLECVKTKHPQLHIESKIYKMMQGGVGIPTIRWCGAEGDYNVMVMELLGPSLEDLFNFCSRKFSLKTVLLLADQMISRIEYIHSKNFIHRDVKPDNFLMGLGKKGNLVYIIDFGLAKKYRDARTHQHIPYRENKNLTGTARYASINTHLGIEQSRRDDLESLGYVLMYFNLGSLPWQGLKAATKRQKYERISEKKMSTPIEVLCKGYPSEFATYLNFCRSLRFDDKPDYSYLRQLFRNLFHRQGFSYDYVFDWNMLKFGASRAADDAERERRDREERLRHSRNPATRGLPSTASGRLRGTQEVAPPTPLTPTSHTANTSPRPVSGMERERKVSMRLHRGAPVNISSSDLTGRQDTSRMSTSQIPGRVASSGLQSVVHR
UniProt Q08345: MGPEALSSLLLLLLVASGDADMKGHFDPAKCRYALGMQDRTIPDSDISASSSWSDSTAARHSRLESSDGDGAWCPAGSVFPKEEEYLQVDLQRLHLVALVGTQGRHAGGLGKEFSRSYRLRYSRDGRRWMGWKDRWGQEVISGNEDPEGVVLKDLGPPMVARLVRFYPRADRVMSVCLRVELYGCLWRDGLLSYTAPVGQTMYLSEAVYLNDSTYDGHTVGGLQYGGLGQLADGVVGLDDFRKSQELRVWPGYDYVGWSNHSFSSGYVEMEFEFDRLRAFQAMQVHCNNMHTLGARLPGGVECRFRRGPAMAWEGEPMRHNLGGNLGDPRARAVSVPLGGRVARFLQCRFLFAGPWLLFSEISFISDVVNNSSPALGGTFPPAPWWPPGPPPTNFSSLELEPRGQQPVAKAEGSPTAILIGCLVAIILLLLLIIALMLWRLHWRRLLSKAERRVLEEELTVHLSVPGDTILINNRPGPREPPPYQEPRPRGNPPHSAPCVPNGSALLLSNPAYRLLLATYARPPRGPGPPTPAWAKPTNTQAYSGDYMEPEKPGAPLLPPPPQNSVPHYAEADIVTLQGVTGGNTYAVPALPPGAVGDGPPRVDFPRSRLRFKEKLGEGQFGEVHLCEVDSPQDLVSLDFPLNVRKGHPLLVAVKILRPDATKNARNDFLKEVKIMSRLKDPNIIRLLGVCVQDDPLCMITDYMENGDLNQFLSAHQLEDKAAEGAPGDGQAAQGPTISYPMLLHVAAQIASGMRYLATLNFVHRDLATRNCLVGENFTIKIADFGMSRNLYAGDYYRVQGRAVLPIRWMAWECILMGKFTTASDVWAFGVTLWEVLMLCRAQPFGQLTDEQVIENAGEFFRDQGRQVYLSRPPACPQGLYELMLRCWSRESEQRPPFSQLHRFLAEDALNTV
UniProt P06213, whole entry: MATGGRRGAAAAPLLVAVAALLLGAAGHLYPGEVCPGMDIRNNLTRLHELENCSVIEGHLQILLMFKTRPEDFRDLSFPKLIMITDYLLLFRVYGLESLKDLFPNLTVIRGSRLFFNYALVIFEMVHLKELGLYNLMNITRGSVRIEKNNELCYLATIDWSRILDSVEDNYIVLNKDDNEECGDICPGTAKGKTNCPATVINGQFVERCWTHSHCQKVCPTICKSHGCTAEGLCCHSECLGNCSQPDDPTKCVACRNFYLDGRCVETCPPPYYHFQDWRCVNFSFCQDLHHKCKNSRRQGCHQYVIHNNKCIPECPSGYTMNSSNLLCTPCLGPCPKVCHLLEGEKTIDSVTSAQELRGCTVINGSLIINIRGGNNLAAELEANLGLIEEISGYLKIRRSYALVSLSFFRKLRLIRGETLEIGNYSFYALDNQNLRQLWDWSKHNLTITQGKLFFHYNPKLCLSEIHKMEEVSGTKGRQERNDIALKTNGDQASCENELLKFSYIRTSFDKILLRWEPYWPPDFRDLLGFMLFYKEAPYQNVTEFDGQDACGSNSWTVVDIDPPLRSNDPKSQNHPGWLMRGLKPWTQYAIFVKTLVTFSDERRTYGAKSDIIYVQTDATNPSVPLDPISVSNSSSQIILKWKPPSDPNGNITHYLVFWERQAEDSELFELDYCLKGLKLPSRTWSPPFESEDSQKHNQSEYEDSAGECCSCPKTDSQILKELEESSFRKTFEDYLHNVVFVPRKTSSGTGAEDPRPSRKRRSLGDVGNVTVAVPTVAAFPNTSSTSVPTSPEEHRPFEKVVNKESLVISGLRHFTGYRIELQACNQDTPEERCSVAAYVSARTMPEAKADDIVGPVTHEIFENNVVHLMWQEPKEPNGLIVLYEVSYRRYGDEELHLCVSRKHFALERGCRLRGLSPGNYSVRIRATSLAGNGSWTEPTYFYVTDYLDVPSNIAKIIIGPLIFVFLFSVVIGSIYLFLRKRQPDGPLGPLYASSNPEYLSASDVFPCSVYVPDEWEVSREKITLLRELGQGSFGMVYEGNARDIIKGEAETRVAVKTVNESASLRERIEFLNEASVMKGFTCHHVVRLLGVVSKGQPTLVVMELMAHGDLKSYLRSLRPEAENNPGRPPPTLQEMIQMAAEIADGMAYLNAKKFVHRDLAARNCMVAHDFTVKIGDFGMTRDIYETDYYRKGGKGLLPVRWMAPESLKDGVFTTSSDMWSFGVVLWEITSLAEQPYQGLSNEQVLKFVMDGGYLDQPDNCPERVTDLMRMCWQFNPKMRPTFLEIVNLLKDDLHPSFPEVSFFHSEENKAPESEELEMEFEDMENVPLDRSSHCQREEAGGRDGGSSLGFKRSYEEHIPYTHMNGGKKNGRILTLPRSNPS
UniProt Q5TCX8: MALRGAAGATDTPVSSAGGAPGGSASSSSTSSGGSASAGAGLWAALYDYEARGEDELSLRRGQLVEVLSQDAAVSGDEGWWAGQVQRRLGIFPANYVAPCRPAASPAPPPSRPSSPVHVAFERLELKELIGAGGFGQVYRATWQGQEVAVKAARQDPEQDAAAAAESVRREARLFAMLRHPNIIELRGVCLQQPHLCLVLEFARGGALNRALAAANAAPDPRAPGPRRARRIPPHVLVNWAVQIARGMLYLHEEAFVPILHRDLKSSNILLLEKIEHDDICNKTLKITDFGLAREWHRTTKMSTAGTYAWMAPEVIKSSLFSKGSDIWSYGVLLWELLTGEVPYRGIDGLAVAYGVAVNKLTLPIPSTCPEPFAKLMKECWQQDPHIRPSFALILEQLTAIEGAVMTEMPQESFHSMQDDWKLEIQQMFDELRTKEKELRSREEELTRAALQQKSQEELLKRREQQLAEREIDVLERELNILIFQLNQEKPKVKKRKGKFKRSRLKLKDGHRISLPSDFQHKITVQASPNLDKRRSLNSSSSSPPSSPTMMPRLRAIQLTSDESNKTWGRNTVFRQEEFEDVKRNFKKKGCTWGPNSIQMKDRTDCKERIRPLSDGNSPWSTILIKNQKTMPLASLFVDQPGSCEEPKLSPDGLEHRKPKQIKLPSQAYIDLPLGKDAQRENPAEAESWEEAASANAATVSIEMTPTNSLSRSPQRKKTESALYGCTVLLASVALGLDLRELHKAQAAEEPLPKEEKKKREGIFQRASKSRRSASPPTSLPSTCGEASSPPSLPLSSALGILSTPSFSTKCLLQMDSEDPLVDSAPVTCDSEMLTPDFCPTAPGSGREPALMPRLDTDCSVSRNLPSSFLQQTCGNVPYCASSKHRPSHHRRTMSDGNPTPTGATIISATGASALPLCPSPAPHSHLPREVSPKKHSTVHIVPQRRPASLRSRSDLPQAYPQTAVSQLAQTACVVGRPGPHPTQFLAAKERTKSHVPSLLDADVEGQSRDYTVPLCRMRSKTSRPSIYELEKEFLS
UniProt O95747, whole entry, looked up: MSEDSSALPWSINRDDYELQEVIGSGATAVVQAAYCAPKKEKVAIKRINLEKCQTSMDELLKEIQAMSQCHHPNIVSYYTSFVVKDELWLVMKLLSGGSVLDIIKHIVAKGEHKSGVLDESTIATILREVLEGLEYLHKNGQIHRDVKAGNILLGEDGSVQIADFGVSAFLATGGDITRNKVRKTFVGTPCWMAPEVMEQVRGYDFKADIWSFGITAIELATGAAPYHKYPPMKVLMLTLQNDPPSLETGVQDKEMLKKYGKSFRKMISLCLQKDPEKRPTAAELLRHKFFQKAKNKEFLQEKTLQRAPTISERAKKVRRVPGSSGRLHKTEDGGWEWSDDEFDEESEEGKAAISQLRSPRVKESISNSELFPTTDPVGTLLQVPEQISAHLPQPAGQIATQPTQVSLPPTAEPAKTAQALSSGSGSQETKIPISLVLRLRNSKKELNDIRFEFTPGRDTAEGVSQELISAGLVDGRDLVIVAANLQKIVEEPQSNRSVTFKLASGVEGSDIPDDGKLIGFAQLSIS
UniProt Q16513: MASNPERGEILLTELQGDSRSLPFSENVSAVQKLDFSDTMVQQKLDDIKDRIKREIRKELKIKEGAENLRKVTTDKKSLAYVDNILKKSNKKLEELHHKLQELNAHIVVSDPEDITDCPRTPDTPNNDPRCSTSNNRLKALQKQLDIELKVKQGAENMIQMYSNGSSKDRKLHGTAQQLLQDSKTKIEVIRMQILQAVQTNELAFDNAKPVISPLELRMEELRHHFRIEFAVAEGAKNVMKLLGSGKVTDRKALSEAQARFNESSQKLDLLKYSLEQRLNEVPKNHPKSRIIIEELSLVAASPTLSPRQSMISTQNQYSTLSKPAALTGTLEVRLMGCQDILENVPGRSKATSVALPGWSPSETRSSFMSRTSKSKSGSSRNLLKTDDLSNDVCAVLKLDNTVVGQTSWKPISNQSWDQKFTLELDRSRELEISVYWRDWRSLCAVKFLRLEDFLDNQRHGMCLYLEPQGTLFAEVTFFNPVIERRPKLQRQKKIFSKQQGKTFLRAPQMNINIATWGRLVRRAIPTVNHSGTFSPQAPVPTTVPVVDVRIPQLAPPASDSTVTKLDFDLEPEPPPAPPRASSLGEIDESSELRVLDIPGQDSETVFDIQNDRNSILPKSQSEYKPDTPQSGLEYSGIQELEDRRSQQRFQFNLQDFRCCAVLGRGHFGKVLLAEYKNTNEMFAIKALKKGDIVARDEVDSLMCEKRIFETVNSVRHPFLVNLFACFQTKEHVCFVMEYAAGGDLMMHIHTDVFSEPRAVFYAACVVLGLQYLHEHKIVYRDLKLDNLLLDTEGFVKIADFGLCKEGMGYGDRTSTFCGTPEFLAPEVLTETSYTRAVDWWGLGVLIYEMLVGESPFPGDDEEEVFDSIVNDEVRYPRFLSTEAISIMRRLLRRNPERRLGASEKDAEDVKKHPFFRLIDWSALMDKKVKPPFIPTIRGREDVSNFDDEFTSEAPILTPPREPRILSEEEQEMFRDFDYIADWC
UniProt O75676: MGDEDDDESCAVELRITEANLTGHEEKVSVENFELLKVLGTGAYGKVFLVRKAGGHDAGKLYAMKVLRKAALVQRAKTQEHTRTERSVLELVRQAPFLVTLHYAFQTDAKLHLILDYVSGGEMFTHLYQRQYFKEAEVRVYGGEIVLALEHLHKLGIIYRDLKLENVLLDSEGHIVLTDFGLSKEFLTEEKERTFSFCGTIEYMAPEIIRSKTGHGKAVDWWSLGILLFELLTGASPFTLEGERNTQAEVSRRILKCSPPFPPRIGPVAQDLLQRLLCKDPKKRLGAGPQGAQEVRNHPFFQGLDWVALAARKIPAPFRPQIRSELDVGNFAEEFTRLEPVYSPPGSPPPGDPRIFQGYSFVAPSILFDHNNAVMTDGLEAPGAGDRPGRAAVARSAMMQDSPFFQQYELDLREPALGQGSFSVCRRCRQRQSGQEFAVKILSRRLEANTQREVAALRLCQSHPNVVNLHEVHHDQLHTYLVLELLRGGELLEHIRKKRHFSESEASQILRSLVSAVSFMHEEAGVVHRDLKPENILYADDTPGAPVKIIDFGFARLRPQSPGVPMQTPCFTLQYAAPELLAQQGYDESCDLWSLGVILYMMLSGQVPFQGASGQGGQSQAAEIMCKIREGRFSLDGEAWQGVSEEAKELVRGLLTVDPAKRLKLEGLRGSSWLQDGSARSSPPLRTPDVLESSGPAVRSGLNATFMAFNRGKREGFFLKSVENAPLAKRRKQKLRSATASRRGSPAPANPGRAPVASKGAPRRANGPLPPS

Legend:
Assay in all cases: apparent dissociation constant pKd app (kinobead competition) (-log10(M)); higher = stronger binding
CLK1 = CLK1 (UniProt P49759)
CSNK1D = CSNK1D (UniProt P48730)
DDR1 = DDR1 (UniProt Q08345)
INSR = INSR (UniProt P06213)
JAK3 = target: T1, JAK3 (UniProt P52333)
T1 sequence (whole entry): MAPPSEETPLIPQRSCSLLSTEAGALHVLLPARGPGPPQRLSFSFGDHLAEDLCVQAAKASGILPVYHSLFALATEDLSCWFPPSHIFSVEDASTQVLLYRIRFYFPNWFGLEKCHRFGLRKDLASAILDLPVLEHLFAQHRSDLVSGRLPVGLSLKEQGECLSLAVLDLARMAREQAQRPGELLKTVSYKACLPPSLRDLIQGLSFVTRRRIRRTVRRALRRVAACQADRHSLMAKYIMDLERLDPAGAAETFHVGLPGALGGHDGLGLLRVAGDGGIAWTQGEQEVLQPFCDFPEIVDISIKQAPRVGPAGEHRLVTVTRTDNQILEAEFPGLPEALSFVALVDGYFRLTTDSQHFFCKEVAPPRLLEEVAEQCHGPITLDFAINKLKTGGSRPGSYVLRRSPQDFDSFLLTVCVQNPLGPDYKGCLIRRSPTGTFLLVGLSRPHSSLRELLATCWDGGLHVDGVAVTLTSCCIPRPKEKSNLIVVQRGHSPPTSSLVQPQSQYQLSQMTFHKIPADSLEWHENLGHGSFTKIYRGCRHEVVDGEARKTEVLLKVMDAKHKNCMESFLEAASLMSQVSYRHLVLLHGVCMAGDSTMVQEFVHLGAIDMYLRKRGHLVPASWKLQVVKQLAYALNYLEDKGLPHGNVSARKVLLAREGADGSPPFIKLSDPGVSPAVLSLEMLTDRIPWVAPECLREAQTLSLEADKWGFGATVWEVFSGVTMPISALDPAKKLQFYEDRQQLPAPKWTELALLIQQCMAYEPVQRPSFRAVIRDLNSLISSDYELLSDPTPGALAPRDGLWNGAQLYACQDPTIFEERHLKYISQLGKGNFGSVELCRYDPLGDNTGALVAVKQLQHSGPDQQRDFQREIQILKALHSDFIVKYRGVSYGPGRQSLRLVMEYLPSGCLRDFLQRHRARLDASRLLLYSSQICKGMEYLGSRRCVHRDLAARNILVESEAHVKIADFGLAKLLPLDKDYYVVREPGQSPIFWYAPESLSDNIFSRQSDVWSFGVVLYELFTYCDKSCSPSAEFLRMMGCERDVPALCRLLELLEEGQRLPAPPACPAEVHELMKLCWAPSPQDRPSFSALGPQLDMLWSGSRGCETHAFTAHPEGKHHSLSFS

KIAA1804 = KIAA1804 (UniProt Q5TCX8)
NEK3 = target: T2, NEK3 (UniProt P51956)
T2 sequence (whole entry): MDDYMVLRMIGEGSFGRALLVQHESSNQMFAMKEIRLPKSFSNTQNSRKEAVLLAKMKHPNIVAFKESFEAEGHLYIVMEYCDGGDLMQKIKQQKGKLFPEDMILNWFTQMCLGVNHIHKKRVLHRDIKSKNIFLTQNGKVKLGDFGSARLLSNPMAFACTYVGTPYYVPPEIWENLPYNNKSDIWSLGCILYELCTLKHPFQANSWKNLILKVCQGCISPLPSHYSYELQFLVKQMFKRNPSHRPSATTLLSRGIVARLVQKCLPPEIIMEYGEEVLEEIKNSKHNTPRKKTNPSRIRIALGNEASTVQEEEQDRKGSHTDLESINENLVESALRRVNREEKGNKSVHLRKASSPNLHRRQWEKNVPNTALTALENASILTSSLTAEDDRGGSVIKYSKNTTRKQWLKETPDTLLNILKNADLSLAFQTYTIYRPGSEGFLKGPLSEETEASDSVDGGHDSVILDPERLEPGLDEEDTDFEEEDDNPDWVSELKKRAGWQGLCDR

NEK6 = target: T3, NEK6 (UniProt Q9HC98)
T3 sequence (whole entry): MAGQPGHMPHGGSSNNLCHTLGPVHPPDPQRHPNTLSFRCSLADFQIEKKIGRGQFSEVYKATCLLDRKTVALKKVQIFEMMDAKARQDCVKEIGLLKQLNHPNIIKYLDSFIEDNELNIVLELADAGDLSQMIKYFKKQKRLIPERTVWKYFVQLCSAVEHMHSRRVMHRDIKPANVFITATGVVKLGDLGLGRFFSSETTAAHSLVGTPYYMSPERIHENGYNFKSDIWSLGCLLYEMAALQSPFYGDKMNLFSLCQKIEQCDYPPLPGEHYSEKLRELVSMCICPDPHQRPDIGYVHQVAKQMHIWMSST

OXSR1 = OXSR1 (UniProt O95747)
PKN2 = PKN2 (UniProt Q16513)
RPS6KA4 = RPS6KA4 (UniProt O75676)

apparent dissociation constant pKd app (-log10) (CLK1) | apparent dissociation constant pKd app (-log10) (CSNK1D) | apparent dissociation constant pKd app (-log10) (DDR1) | apparent dissociation constant pKd app (-log10) (INSR) | apparent dissociation constant pKd app (-log10) (JAK3) | apparent dissociation constant pKd app (-log10) (KIAA1804) | apparent dissociation constant pKd app (-log10) (NEK3) | apparent dissociation constant pKd app (-log10) (NEK6) | apparent dissociation constant pKd app (-log10) (OXSR1) | apparent dissociation constant pKd app (-log10) (PKN2) | apparent dissociation constant pKd app (-log10) (RPS6KA4) | Compound
< 4.7 | < 4.6 | < 4.6 | < 4.5 | < 4.6 | < 4.6 | < 4.6 | < 4.6 | < 4.5 | < 4.5 | < 4.6 | O=C(c1cc(Cc2n[nH]c(=O)c3ccccc23)ccc1F)N1CCN(C(=O)C2CC2)CC1 [Olaparib]
< 4.7 | < 4.6 | < 4.6 | < 4.5 | < 4.6 | < 4.6 | < 4.6 | < 4.6 | < 4.5 | < 4.5 | < 4.6 | NC(=O)c1cccc2cn(-c3ccc([C@@H]4CCCNC4)cc3)nc12 [Niraparib]
< 4.7 | < 4.6 | < 4.6 | < 4.5 | < 4.6 | < 4.6 | < 4.6 | < 4.6 | < 4.5 | < 4.5 | < 4.6 | Cn1ncnc1[C@H]1c2n[nH]c(=O)c3cc(F)cc(c23)N[C@@H]1c1ccc(F)cc1 [Talazoparib]
